{"source": "patent US8883847B2", "about": "“Compositions and methods of treatment using modulators of motoneuron diseases” (KineMed, Inc., priority 2006, dated 2014)", "origin": "cited, not measured here", "system": "ALS SOD1 G93A mouse", "settings": "SOD1-G93A TGN mouse; cited from earlier work"}
{"compound": "Nc1nc2ccc(OC(F)(F)F)cc2s1", "note": "[Riluzole]", "values": [{"measurement": "delay of disease onset and mortality", "value": "20 to 30", "unit": "days"}]}
